# Source: US8686113B2 (priority 2009, dated 2014)
# Tests used:
# M. luteus 10240 = assay: Growth inhibition assay (microdilution MIC); assay type: cell-based, Micrococcus luteus; conditions: for fold increase in activity against M. luteus versus unmodified peptide: penetratin coupled via thioether bridge
# Protocol: (§1) The minimum inhibitory concentrations (MIC) of the antimicrobial peptides and peptide derivatives were determined in microdilution assays. These used a continuous peptide dilution in sterile flat-bottomed 96-well microtiter plates (polystyrene, Greiner Bio-One GmbH, Frickenhausen, Germany) and a total volume of 100 μL per well. The aqueous peptide or peptidomimetic solutions were diluted with 1% TSB water, to obtain a final concentration of 256 μg/mL. 50 μL of the peptide or peptidomimetic solution was pipetted into the first well of each series and stirred. From this solution, 50 μL was transferred to the second well, stirred and again 50 μL was transferred to the next well, and so on. A double dilution series is obtained, beginning at 256 μg/mL in the first well to 125 ng/mL in the twelfth well. The bacteria, e.g. E. coli BL21 A1, were cultured overnight at 37° C. in nutrient broth (NB, Carl Roth GmbH+Co. KG, Karlsruhe, Germany). 50 μL of a 5×10^6 bacteria/mL suspension in 1% TSB was added to each well of the microtiter plate and thus a final concentration of the peptides or peptidomimetics from 128 μg/mL (well 1) to 62.5 ng/mL (well 12) was established in each series. The plates were incubated at 37° C. for 20 h and then the absorption was measured at 595 nm with a TECAN microtiter plate spectrophotometer (Tecan Trading AG, Mannedorf, Switzerland). The MIC values of all peptides and peptidomimetics were determined in triplicate. Sterile water was used as negative control. The MIC value represents the lowest peptide concentration at which no bacterial growth is observed after an incubation time of 20 h at 37° C.
# (§2) The MIC values of the peptides and peptide derivatives against Escherichia coli BL21 A1 and Micrococcus luteus ATCC 10240 are given in Table 7.
# E. coli BL21 A1 = assay type: cell-based, Escherichia coli; conditions: BL21, 20 h
# Protocol: as §1, §2
"MIC M. luteus 10240 (M. luteus 10240; 1% TSB, 20 h at 37° C.) [µg/mL]",Compound,fold increase in activity against M. luteus versus unmodified peptide (M. luteus 10240) [fold],MIC E. coli BL21 A1 (E. coli BL21 A1) [µg/mL],"MIC M. luteus 10240 (M. luteus 10240; 10240, 20 h) [µg/mL]"
8,CC[C@H](C)[C@H](NC(=O)[C@H](CCCCN)NC(=O)[C@@H](NC(=O)[C@H](CCC(N)=O)NC(=O)[C@@H](N)CCCNC(=N)N)[C@@H](C)CC)C(=O)N[C@@H](Cc1c[nH]c2ccccc12)C(=O)N[C@@H](Cc1ccccc1)C(=O)N[C@@H](CCC(N)=O)C(=O)N[C@@H](CC(N)=O)C(=O)N[C@@H](CCCNC(=N)N)C(=O)N[C@@H](CCCNC(=N)N)C(=O)N[C@@H](CCSC)C(=O)N[C@@H](CCCCN)C(=O)N[C@@H](Cc1c[nH]c2ccccc12)C(=O)N[C@@H](CCCCN)C(=O)N[C@@H](CCCCN)C(=O)N[C@@H](CSCC(=O)NCC(=O)N[C@@H](CC(N)=O)C(=O)N[C@@H](CC(N)=O)C(=O)N[C@@H](CCCNC(=N)N)C(=O)N1CCC[C@H]1C(=O)N[C@H](C(=O)N[C@@H](Cc1ccc(O)cc1)C(=O)N[C@H](C(=O)N1CCC[C@H]1C(=O)N[C@@H](CCC(N)=O)C(=O)N1CCC[C@H]1C(=O)N[C@@H](CCCNC(=N)N)C(=O)N1CCC[C@H]1C(=O)N1CCC[C@H]1C(=O)N[C@@H](Cc1c[nH]cn1)C(=O)N1CCC[C@H]1C(=O)N[C@@H](CCCNC(=N)N)C(=O)N[C@@H](CC(C)C)C(=O)O)[C@@H](C)CC)C(C)C)C(=O)O [SEQ ID NO. 95],8,,
1,CC[C@H](C)[C@H](NC(=O)[C@H](CCCCN)NC(=O)[C@@H](NC(=O)[C@H](CCC(N)=O)NC(=O)[C@@H](N)CCCNC(=N)N)[C@@H](C)CC)C(=O)N[C@@H](Cc1c[nH]c2ccccc12)C(=O)N[C@@H](Cc1ccccc1)C(=O)N[C@@H](CCC(N)=O)C(=O)N[C@@H](CC(N)=O)C(=O)N[C@@H](CCCNC(=N)N)C(=O)N[C@@H](CCCNC(=N)N)C(=O)N[C@@H](CCSC)C(=O)N[C@@H](CCCCN)C(=O)N[C@@H](Cc1c[nH]c2ccccc12)C(=O)N[C@@H](CCCCN)C(=O)N[C@@H](CCCCN)C(=O)N[C@@H](CSCC(=O)NCC(=O)N[C@@H](CCCCN)C(=O)N1CCC[C@H]1C(=O)N[C@@H](CCCNC(=N)N)C(=O)N1CCC[C@H]1C(=O)N[C@@H](Cc1ccc(O)cc1)C(=O)N[C@@H](CO)C(=O)N1CCC[C@H]1C(=O)N[C@@H](CCCNC(=N)N)C(=O)N1CCC[C@H]1C(=O)N[C@H](C(=O)N[C@@H](CO)C(=O)N[C@@H](Cc1c[nH]cn1)C(=O)N1CCC[C@H]1C(=O)N[C@@H](CCCNC(=N)N)C(=O)N1CCC[C@H]1C(=O)N[C@H](C(=O)N[C@@H](CCCNC(=N)N)C(=O)N[C@H](C(=O)O)C(C)C)[C@@H](C)CC)[C@@H](C)O)C(=O)O [SEQ ID NO. 97],,,
,CC[C@H](C)[C@H](NC(=O)[C@H](CCCCN)NC(=O)[C@@H](NC(=O)[C@H](CCC(N)=O)NC(=O)[C@@H](N)CCCNC(=N)N)[C@@H](C)CC)C(=O)N[C@@H](Cc1c[nH]c2ccccc12)C(=O)N[C@@H](Cc1ccccc1)C(=O)N[C@@H](CCC(N)=O)C(=O)N[C@@H](CC(N)=O)C(=O)N[C@@H](CCCNC(=N)N)C(=O)N[C@@H](CCCNC(=N)N)C(=O)N[C@@H](CCSC)C(=O)N[C@@H](CCCCN)C(=O)N[C@@H](Cc1c[nH]c2ccccc12)C(=O)N[C@@H](CCCCN)C(=O)N[C@@H](CCCCN)C(=O)N[C@@H](CSCC(=O)N[C@H](C(=O)N[C@@H](CC(=O)O)C(=O)N[C@@H](CCCCN)C(=O)NCC(=O)N[C@@H](CO)C(=O)N[C@@H](Cc1ccc(O)cc1)C(=O)N[C@@H](CC(C)C)C(=O)N1CCC[C@H]1C(=O)N[C@@H](CCCNC(=N)N)C(=O)N1CCC[C@H]1C(=O)N[C@H](C(=O)N1CCC[C@H]1C(=O)N1CCC[C@H]1C(=O)N[C@@H](CCCNC(=N)N)C(=O)N1CCC[C@H]1C(=O)N[C@H](C(=O)N[C@@H](Cc1ccc(O)cc1)C(=O)N[C@@H](CC(N)=O)C(=O)N[C@@H](CCCNC(=N)N)C(=O)N[C@@H](CC(N)=O)C(N)=O)[C@@H](C)CC)[C@@H](C)O)C(C)C)C(=O)O [SEQ ID NO. 99],32,,
,CC[C@H](C)[C@H](NC(=O)[C@H](CCCCN)NC(=O)[C@@H](NC(=O)[C@H](CCC(N)=O)NC(=O)[C@@H](N)CCCNC(=N)N)[C@@H](C)CC)C(=O)N[C@@H](Cc1c[nH]c2ccccc12)C(=O)N[C@@H](Cc1ccccc1)C(=O)N[C@@H](CCC(N)=O)C(=O)N[C@@H](CC(N)=O)C(=O)N[C@@H](CCCNC(=N)N)C(=O)N[C@@H](CCCNC(=N)N)C(=O)N[C@@H](CCSC)C(=O)N[C@@H](CCCCN)C(=O)N[C@@H](Cc1c[nH]c2ccccc12)C(=O)N[C@@H](CCCCN)C(=O)N[C@@H](CCCCN)C(=O)N[C@@H](CSCC(=O)NCC(=O)N[C@@H](CCCCN)C(=O)N1CCC[C@H]1C(=O)N[C@@H](CCCNC(=N)N)C(=O)N1CCC[C@H]1C(=O)N[C@@H](Cc1ccc(O)cc1)C(=O)N[C@@H](CO)C(=O)N1CCC[C@H]1C(=O)N[C@@H](CCCNC(=N)N)C(=O)N1CCC[C@H]1C(=O)N[C@H](C(=O)N[C@@H](CO)C(=O)N[C@@H](Cc1c[nH]cn1)C(=O)N1CCC[C@H]1C(=O)N[C@@H](CCCNC(=N)N)C(=O)N1CCC[C@H]1C(=O)N[C@H](C(=O)N[C@@H](CCCNC(=N)N)C(=O)N[C@H](C(=O)O)C(C)C)[C@@H](C)CC)[C@@H](C)O)C(=O)O [compound 97],,16,
,CC[C@H](C)[C@H](NC(=O)[C@H](CCCCN)NC(=O)[C@@H](NC(=O)[C@H](CCC(N)=O)NC(=O)[C@@H](N)CCCNC(=N)N)[C@@H](C)CC)C(=O)N[C@@H](Cc1c[nH]c2ccccc12)C(=O)N[C@@H](Cc1ccccc1)C(=O)N[C@@H](CCC(N)=O)C(=O)N[C@@H](CC(N)=O)C(=O)N[C@@H](CCCNC(=N)N)C(=O)N[C@@H](CCCNC(=N)N)C(=O)N[C@@H](CCSC)C(=O)N[C@@H](CCCCN)C(=O)N[C@@H](Cc1c[nH]c2ccccc12)C(=O)N[C@@H](CCCCN)C(=O)N[C@@H](CCCCN)C(=O)N[C@@H](CSCC(=O)N[C@H](C(=O)N[C@@H](CC(=O)O)C(=O)N[C@@H](CCCCN)C(=O)NCC(=O)N[C@@H](CO)C(=O)N[C@@H](Cc1ccc(O)cc1)C(=O)N[C@@H](CC(C)C)C(=O)N1CCC[C@H]1C(=O)N[C@@H](CCCNC(=N)N)C(=O)N1CCC[C@H]1C(=O)N[C@H](C(=O)N1CCC[C@H]1C(=O)N1CCC[C@H]1C(=O)N[C@@H](CCCNC(=N)N)C(=O)N1CCC[C@H]1C(=O)N[C@H](C(=O)N[C@@H](Cc1ccc(O)cc1)C(=O)N[C@@H](CC(N)=O)C(=O)N[C@@H](CCCNC(=N)N)C(=O)N[C@@H](CC(N)=O)C(N)=O)[C@@H](C)CC)[C@@H](C)O)C(C)C)C(=O)O [compound 99],,32,4

Compound,"MIC M. luteus 10240 (M. luteus 10240; 1% TSB, 20 h at 37° C.) [µg/mL]",fold increase in activity against M. luteus versus unmodified peptide (M. luteus 10240) [fold],MIC E. coli BL21 A1 (E. coli BL21 A1) [µg/mL],"MIC M. luteus 10240 (M. luteus 10240; 10240, 20 h) [µg/mL]"
CC[C@H](C)[C@H](NC(=O)[C@H](CCCNC(=N)N)NC(=O)[C@H](CCCNC(=N)N)NC(=O)[C@@H]1CCCN1C(=O)[C@@H]1CCCN1C(=O)[C@H](CCCNC(=N)N)NC(=O)[C@@H]1CCCN1C(=O)[C@H](CCCNC(=N)N)NC(=O)[C@@H]1CCCN1C(=O)[C@H](CC(C)C)NC(=O)[C@H](Cc1ccc(O)cc1)NC(=O)[C@@H]1CCCN1C(=O)[C@@H]1CCCN1C(=O)[C@H](CCCCN)NC(=O)[C@H](CC(=O)O)NC(=O)[C@@H](NC(=O)CSC[C@H](NC(=O)[C@H](CCCCN)NC(=O)[C@H](CCCCN)NC(=O)[C@H](Cc1c[nH]c2ccccc12)NC(=O)[C@H](CCCCN)NC(=O)[C@H](CCSC)NC(=O)[C@H](CCCNC(=N)N)NC(=O)[C@H](CCCNC(=N)N)NC(=O)[C@H](CC(N)=O)NC(=O)[C@H](CCC(N)=O)NC(=O)[C@H](Cc1ccccc1)NC(=O)[C@H](Cc1c[nH]c2ccccc12)NC(=O)[C@@H](NC(=O)[C@H](CCCCN)NC(=O)[C@@H](NC(=O)[C@H](CCC(N)=O)NC(=O)[C@@H](N)CCCNC(=N)N)[C@@H](C)CC)[C@@H](C)CC)C(=O)O)C(C)C)C(=O)N[C@@H](Cc1ccc(O)cc1)C(=O)N[C@@H](CC(N)=O)C(=O)N[C@@H](CCCNC(=N)N)C(N)=O [SEQ ID NO. 101],4,,32,
